Results on 1 compound are retold here after PubChem BioAssay AID504799 (The Scripps Research Institute Molecular Screening Center, 2011).

The assay can be described thus: FP signal interference without PKA proteins, confirmation, artefact control for PKA-R1A activator project, biochemical, fluorescence polarization, triplicate (AID 504799).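 Note: no PKA protein present so any polarization rise reflects compound interference; 0% = tracer peptide mix alone and 100% = mix with added PKA catalytic subunit; higher means stronger polarization artifact and likely false positive in parent screen.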 To be noted: Cy5-IP20 peptide alone, fluorescence polarization artifact counterscreen; at 11.4 µM; stronger effect = higher value. A general note: Fluorescence polarisation rises when a labelled molecule tumbles more slowly, as on binding a larger partner.

This is a selection; strong and weak results do not stand in their true shares. Calls of active or inactive are those of the source.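 Rule for the calls: active = mean activation over triplicate runs exceeds the adjusted cutoff derived for the parent primary screen (cut at about 19% in these data); inactive = the rest.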

For `CC(C)c1ccc(OP(=O)(Nc2ccccn2)Oc2ccccc2F)cc1` (stereo unspecified), the activation was inactive: -1.91%.
